# Patent US7544814B2, “[3.2.0] Heterocyclic compounds and methods of using the same” (Nereus Pharmaceuticals, Inc., priority 2004, dated 2009)
# By UniProt entry, the sequences of proteins in these tests, tags left out. Residues count along the entry.
# UniProt G1T4Q9, 1-263: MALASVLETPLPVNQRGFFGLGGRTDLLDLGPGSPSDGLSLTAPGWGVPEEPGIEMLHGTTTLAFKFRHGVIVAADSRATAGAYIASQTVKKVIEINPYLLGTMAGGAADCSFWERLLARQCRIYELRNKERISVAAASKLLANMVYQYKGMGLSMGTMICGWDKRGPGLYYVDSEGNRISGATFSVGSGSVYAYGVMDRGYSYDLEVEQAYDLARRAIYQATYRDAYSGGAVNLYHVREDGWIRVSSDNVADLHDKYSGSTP
# Several values for one entry are separate records, joined by “and”; a condition that tells them apart may be missing. Equal entries are not always repeated.
# Tests used:
# B16-F10 = assay: Growth inhibition of B16-F10 in media containing 1% or 10% FBS; assay type: cell-based; conditions: Mus musculus, B16-F10, read-out: B16-F10, EC50 (nM) mean ± SD; media containing 10% FBS
# [1] = target: chymotrypsin-like activity of purified rabbit muscle 20S proteasome (Oryctolagus cuniculus, UniProt G1T4Q9); assay: In vitro inhibition of 20S proteasome chymotrypsin-like activity (suc-LLVY-AMC)
# [2] = target: T1, trypsin-like activity of purified rabbit muscle 20S proteasome (Oryctolagus cuniculus, UniProt G1SWK8); assay: In vitro inhibition of 20S proteasome trypsin-like activity (Boc-LRR-AMC); conditions: read-out: Proteasome Trypsin-like EC50; Table 12
# T1 sequence (G1SWK8 1-271): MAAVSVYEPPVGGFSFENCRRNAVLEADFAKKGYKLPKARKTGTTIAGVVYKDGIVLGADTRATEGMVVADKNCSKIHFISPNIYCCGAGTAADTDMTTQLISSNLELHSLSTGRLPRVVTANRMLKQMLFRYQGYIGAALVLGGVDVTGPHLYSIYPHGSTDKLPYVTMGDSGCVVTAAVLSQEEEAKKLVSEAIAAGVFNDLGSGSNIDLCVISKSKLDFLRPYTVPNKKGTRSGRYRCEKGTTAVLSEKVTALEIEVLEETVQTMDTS
# U266 = assay: Cell growth inhibition (resazurin), U266; conditions: Homo sapiens, U-266, 48 h, read-out: U266 EC50, Table 2; 48 hours drug exposure
# [3] = target: T1, trypsin-like activity of purified rabbit muscle 20S proteasome; assay: biochemical
Structure (SMILES),EC50 (B16-F10) [nM],"EC50 ([1]; Proteasome Chymotrypsin-like EC50, Table 12) [nM]",EC50 [2] [nM],EC50 (U266) [nM],EC50 [3],"EC50 ([1]; EC50 Chymotrypsin-like, Table 6, values in nM)","EC50 ([1]; EC50 values, chymotrypsin-like activity, summary of Table 6) [nM]"
C[C@@]12OC(=O)[C@]1([C@@H](O)[C@@H]1C=CCCC1)NC(=O)[C@@H]2CCCl [Formula II-16],13 ± 1,2.6 ± 0.2,21 ± 2.6,,,,
C[C@@]12OC(=O)[C@]1([C@@H](O)[C@@H]1C=CCCC1)NC(=O)[C@H]2CCCl [Formula II-26],,,,1300,2000 nM and 3000 nM,349 nM and 319 nM,207 to 964
